# Apparent affinities of Ab-91 variants for a coronavirus HR2 peptide

Antigen: PDVDLGDISGINAS, a 14-residue peptide of the SARS-CoV-2 spike HR2 region.

Each scFv is VL, the linker GGGGSGGGGSGGGGS, VH, as in the parent Ab-91, and differs from it in the CDRs of the heavy chain only.
VL: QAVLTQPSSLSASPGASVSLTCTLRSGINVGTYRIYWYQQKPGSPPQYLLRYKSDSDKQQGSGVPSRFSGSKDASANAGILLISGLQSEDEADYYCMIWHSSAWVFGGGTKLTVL
VH: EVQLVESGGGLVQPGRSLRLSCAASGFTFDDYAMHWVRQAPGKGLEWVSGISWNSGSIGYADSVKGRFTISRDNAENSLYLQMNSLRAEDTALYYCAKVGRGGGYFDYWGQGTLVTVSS

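The starting antibody came from a phage panning campaign against this peptide. The library (AAYL51) carries one to three amino acid substitutions per variant, with no insertions or deletions. Affinity was read by AlphaSeq, a pooled yeast mating assay with surface-displayed partners. Mating (16 h, 30 °C) was followed by selection of diploids and sequencing of their barcodes. Each replicate has its own calibration line, from reference interactions of the BCL2 family. There are three technical replicates.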

Variants are written as CDR1, CDR2 and CDR3 of the heavy chain (limits as in the source). Parent: GFTFDDYAMH, GISWNSGSIGYADSVK, VGRGGGYFDY. Numbers give log10(Kd / nM), so 0 is 1 nM and 3 is 1 µM. Smaller is tighter. A mean of the replicates is given; it leaves out those without a signal. "nd" marks a missing value. The strain was present, yet no cells mated with the target were sequenced in that replicate, which points to weak or no binding.

| CDR-H1 | CDR-H2 | CDR-H3 | log10 Kd, replicates | mean log10 Kd (nM) | empty controls |
|---|---|---|---|---|---|
| GFTFDDYAMH | GISWNSGSTGYADSVK | VGRGEGYFDY | 1.36 1.41 1.07 | 1.28 | 5/9 (5.18) |
| GFTFDDYAMH | GDSWNSGSIGYADSVK | YGRGGGVFDY | 4.95 4.39 4.43 | 4.59 | 7/9 (5.04) |
| GFTFDDYAMH | GISWNSGSITYADSVC | VGAGGGYFDY | 4.91 nd nd | 4.91 | 1/9 (4.35) |
| GFTFDDYAMH | GDSWNSGSIGYCSSVK | VGRGGGYFDY | nd 5.32 nd | 5.32 | 0/9 |
| GFTLDDYAMH | GISWNSGSIGYADSFK | VGRGGGYFTY | nd nd nd | nd | 2/9 (3.76) |
| GKTRDDYAMH | GISWNSGSIGYADSVK | VGRGGGYFDY | nd 6.29 4.34 | 5.31 | 1/9 (4.44) |
| GFTFDDYLMH | GISKNSGSIGYADSVK | VGRGVGYFDY | 4.28 4.43 5.12 | 4.61 | 6/9 (5.04) |
| NFTFDDYAMH | GISWASGSIGYADSVK | VGRGGGYFDY | nd nd nd | nd | 0/9 |
| GFTFDDYAMH | GISWNSRSIGYADSKK | VGRGGMYFDY | nd nd nd | nd | 0/9 |
| GFTFDDYAMH | GNSWNSGSIGYADSVK | VGRGWGYVDY | nd 5.93 nd | 5.93 | 4/9 (4.85) |
| GFTFDDQAMH | GISWNSGSIGYADSVK | VGRPGVYFDY | 4.24 nd 4.88 | 4.56 | 4/9 (4.28) |
| GFTFDDYAMH | GISWNRGSIGYGSSVK | VGRGGGYFDY | 3.82 nd nd | 3.82 | 1/9 (3.98) |
| GFLFDDYAMH | GISCNSGSIGYADSVK | VGRGGGYFVY | 2.72 2.51 4.35 | 3.19 | 0/9 |
| GFTVDDYAMH | GISWNSGSRGYVDSVK | VGRGGGYFDY | nd nd nd | nd | 1/9 (3.32) |
| GFTFDDYAMI | GISWNWGSIGYADSVK | VGRGHGYFDY | nd nd nd | nd | 0/9 |
| GFTFDDYAMH | DISWNSGSIGYADSVK | VGRGRGYTDY | nd 4.17 nd | 4.17 | 3/9 (4.58) |
| GFTFCDYAMH | GISWNSGSIGYADSVK | VTRPGGYFDY | 5.27 nd 4.35 | 4.81 | 7/9 (4.85) |
| GFTFDDYASH | GISWNSGIIGIADSVK | VGRGGGYFDY | nd nd nd | nd | 1/9 (4.37) |
| GFTFDDYAMH | GICWNSGSIGYADSVK | VGYGGGYFDY | 3.50 nd nd | 3.50 | 1/9 (2.94) |
| GFTFDDYSMH | GISWNSGSIKYADSVK | VGRGGGYFDT | nd nd nd | nd | 0/9 |
| GFWFDDYAMH | GISWNIGSIGYADSVK | VGRGGGYFYY | 3.88 nd nd | 3.88 | 1/9 (3.40) |
| DFTFDDYAMH | GISWNSGSIGYADSQK | VGRGGGYFHY | nd nd nd | nd | 0/9 |
| SFTFDDYAMH | GISWNSCSIGTADSVK | VGRGGGYFDY | 2.91 nd nd | 2.91 | 1/9 (3.73) |
| GFTYDDYAMH | GISWNSGSCGNADSVK | VGRGGGYFDY | nd nd nd | nd | 0/9 |
| GFTFDDYAMH | GISWNSGSIGYADMVK | VGRTGGYFAY | 5.80 4.74 4.41 | 4.98 | 7/9 (4.62) |
| GFTFDGYASH | GISWNSGSYGYADSVK | VGRGGGYFDY | 4.84 4.60 nd | 4.72 | 2/9 (4.30) |
| GFTFDDYAMH | GISWNSGSIGYADFVK | VFRGGGYFWY | 2.95 nd 3.30 | 3.13 | 0/9 |
| GFTFDDYAMQ | GISWNSGSIFYADSVK | VGRDGGYFDY | nd nd nd | nd | 5/9 (4.24) |
| GFIFDDYAMH | GISWNSGSDGYADSVK | VGRGCGYFDY | 3.88 3.30 3.46 | 3.55 | 4/9 (4.27) |
| GGTFDKYAMH | GISWNSGSIGYADSVW | VGRGGGYFDY | nd nd nd | nd | 2/9 (5.20) |
| GFTFDDYAMH | GDSWNSGSIGYKDSVK | VGRGGYYFDY | nd 5.78 nd | 5.78 | 0/9 |
| GFWFDDYAQH | GISWNSGSIGYADSVK | VGYGGGYFDY | 5.04 5.77 nd | 5.40 | 6/9 (4.92) |
| GFTFDDYFMH | GISWNSGCIGYADSVT | VGRGGGYFDY | nd nd nd | nd | 0/9 |
| GFTFDDYAMH | GISWNSGSIGAADSVK | VGRGGRYFIY | 3.86 4.52 3.96 | 4.11 | 4/9 (4.79) |
| GFTFDDYAMP | GISWNSGSIGYAPSVK | VGRWGGYFDY | nd nd nd | nd | 0/9 |
| GVTFDDYAMH | GISWNSGSIGYPDSVK | VGRGGGYFDY | nd nd 3.65 | 3.65 | 1/9 (3.60) |
| GFTFDDYAMH | GISWNSGSIKYADSVK | VGRGGGYFDY | 4.64 4.95 4.78 | 4.79 | 5/9 (5.66) |
| GVTFDDYAMH | GISWNSGSIGYADSVI | VGRGGGYFDK | 2.63 4.19 2.83 | 3.22 | 3/9 (3.55) |
| GFTFNDYAMH | GISWNSGSIGYADSVK | VGRVGGYFDP | 1.68 1.76 1.14 | 1.53 | 4/9 (3.96) |
| GFYFVDYAMH | GISWNSGSIGYADSVK | VGRGGGYCDY | 5.03 3.33 2.69 | 3.68 | 3/9 (3.89) |
| GFTFDDYAMH | GHSCNSGSIGYADSVK | IGRGGGYFDY | 4.39 5.50 5.34 | 5.08 | 7/9 (4.85) |
| GFTFDDYAMH | GIKWNSGSIGYADSWK | VGRGGGYFYY | nd nd nd | nd | 4/9 (5.07) |
| GFTFDDNHMH | GISWNSGSIGYADSVK | VGRGGGYFDY | 4.24 nd nd | 4.24 | 8/9 (4.52) |
| GFTFDDYAMH | GISWNAGSIGYADSVK | RGRGGGYFDR | nd nd nd | nd | 3/9 (3.38) |
| GKTFDDYAMH | GISWNSGSIGYADSVK | VGREGNYFDY | 5.02 6.94 5.94 | 5.97 | 4/9 (4.65) |
| GFTFDDYAYH | GASWNSGSDGYADSVK | VGRGGGYFDY | 3.51 4.08 nd | 3.80 | 2/9 (3.87) |
| GFTFDDYAMH | GWSWNAGSIGYADSVK | VGRGGGYFDK | nd nd nd | nd | 0/9 |
| GFTFDDYAMH | GISWNSASIGYADTVK | VGVGGGYFDY | 1.74 1.65 1.28 | 1.56 | 3/9 (5.40) |
| CFTFDDYADV | GISWNSGSIGYADSVK | VGRGGGYFDY | nd nd nd | nd | 1/9 (3.95) |
| GFTFDDYAMH | GYSWNSGSIGYNDSVQ | VGRGGGYFDY | nd nd nd | nd | 5/9 (4.63) |

From the list, the first 7 with no signal in any replicate:

{"CDR-H1": "GFTLDDYAMH", "CDR-H2": "GISWNSGSIGYADSFK", "CDR-H3": "VGRGGGYFTY", "log10 Kd, replicates": "nd nd nd", "mean log10 Kd (nM)": "nd", "empty controls": "2/9 (3.76)"}
{"CDR-H1": "NFTFDDYAMH", "CDR-H2": "GISWASGSIGYADSVK", "CDR-H3": "VGRGGGYFDY", "log10 Kd, replicates": "nd nd nd", "mean log10 Kd (nM)": "nd", "empty controls": "0/9"}
{"CDR-H1": "GFTFDDYAMH", "CDR-H2": "GISWNSRSIGYADSKK", "CDR-H3": "VGRGGMYFDY", "log10 Kd, replicates": "nd nd nd", "mean log10 Kd (nM)": "nd", "empty controls": "0/9"}
{"CDR-H1": "GFTVDDYAMH", "CDR-H2": "GISWNSGSRGYVDSVK", "CDR-H3": "VGRGGGYFDY", "log10 Kd, replicates": "nd nd nd", "mean log10 Kd (nM)": "nd", "empty controls": "1/9 (3.32)"}
{"CDR-H1": "GFTFDDYAMI", "CDR-H2": "GISWNWGSIGYADSVK", "CDR-H3": "VGRGHGYFDY", "log10 Kd, replicates": "nd nd nd", "mean log10 Kd (nM)": "nd", "empty controls": "0/9"}
{"CDR-H1": "GFTFDDYASH", "CDR-H2": "GISWNSGIIGIADSVK", "CDR-H3": "VGRGGGYFDY", "log10 Kd, replicates": "nd nd nd", "mean log10 Kd (nM)": "nd", "empty controls": "1/9 (4.37)"}
{"CDR-H1": "GFTFDDYSMH", "CDR-H2": "GISWNSGSIKYADSVK", "CDR-H3": "VGRGGGYFDT", "log10 Kd, replicates": "nd nd nd", "mean log10 Kd (nM)": "nd", "empty controls": "0/9"}

In this assay the parent's reference entry averaged 1.86; its copy inside this library read 0.88. As a blank, each scFv also met three strains without target: over library AAYL51, 21% of these pairings were detected, typically at 4.54 and seldom below 3.26. For each scFv, signals with the empty controls are counted beside the result, with their mean in brackets.

Reference: Engelhart et al. 2022, doi:10.1038/s41597-022-01779-4. File: FLAb, binding data.